# Source: PubChem BioAssay (National Center for Advancing Translational Sciences (NCATS))
# TDP1 inh = TDP1 (human) enzyme inhibition | Potency, µM (series often up to 130 µM), for inactives: at the top dose activity change, negative = inhibition, usual class: inhibitors | Q9NUW8 | recombinant TDP1, AlphaScreen DNA substrate cleavage | actives 0.28% (n = 350,000); also: potency is read from the fitted curve at half-maximal effect; % is scaled to controls: 0 for no effect and ±100 for the full control effect; nearly all actives have a fitted effect of over 40% in size
#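 Recombinant E. coli-expressed Tdp1 (1 nM) preincubated with compound 15 min at RT, then 5'-biotin/3'-phosphotyrosine-FITC DNA substrate (15 nM) added for 5 min. AlphaScreen beads (10 ug/ml) added, 10 min RT; tyrosine-FITC cleavage read as signal loss.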
# uPA surface inh = inhibitors of cell surface uPA generation; Potency, µM (titrated, usually from 38.3 µM), without a hit: at the highest dose activity change, negative = inhibition, hits mostly inhibitors; actives 0.31% (n = 330,000); cell surface uPA generation assay, qHTS; active = well fitted inhibition curve with a large enough effect; inconclusive = small, poorly fitted or top-dose-only effect; inactive = no such curve, though single readings can be large or run the other way; tested in mouse RAW 264.7 cells; also: potency is read from the fitted curve at half-maximal effect; % is scaled to controls: 0 for no effect and ±100 for the full control effect; nearly all actives have a fitted effect of over 55% in size
# miR-21 reporter = raises the signal of a miR-21 reporter | HeLa miR-21 FLuc reporter, luciferase, 48 h | Potency, µM (highest dose often 38.3 µM), without a hit: at the top dose reporter change, positive = more light | 340,000 tested, under 10 active; active = well fitted rising curve with a large enough effect; inconclusive = small, poorly fitted or top-dose-only effect; inactive = no such curve, though single readings can be large or run the other way;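 note: % of control where 0% means no effect; miR-21 action dims this reporter so a rising signal means less miR-21 action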
#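 Compounds were titrated across several concentrations (up to approximately 40 uM) and incubated 48 hours with HeLa miR-21-FLuc reporter cells (miR-21 target sequence downstream of FLuc, endogenous miR-21). Readout was firefly luciferase luminescence after lytic detection reagent.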
# DT40 TDP1 CPT = growth inhibition of DT40 Tdp1-/-;hTDP1 cells with camptothecin (screen for TDP1 inhibitors); AID 686979; Potency, µM (doses to about 46.2 µM), without a hit: at the highest dose activity change, negative = growth inhibition, hits mostly inhibitors; chicken DT40 Tdp1-/-;hTDP1 cells + 20 nM CPT, ATP luminescence, 48 h; actives 12% (n = 420,000); also: potency is read from the fitted curve at half-maximal effect; % is scaled to controls: 0 for no effect and ±100 for the full control effect; nearly all actives have a fitted effect of over 55% in size
#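 Chicken DT40 Tdp1-/- cells stably complemented with human TDP1 were seeded at 400 cells/well in medium containing 20 nM camptothecin, exposed to pin-transferred compounds, and grown at 37 °C for at least 48 hr. Viability was read as ATP luminescence.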
# DT40 TDP1 no CPT = qHTS for Inhibitors of human tyrosyl-DNA phosphodiesterase 1 (TDP1): qHTS in cells in absence of CPT; AID 686978, 2013; actives 15% (n = 420,000); DT40 Tdp1-/- hTDP1 cells, no CPT, ATP luminescence, 48 h; Potency, µM (highest dose often 46.2 µM), inactives show at the highest dose activity change, negative = growth inhibition, hits mostly inhibitors; also: potency is read from the fitted curve at half-maximal effect; % is scaled to controls: 0 for no effect and ±100 for the full control effect; nearly all actives have a fitted effect of over 55% in size
#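 Growth kinetics read by CellTiter-Glo luminescence after ≥48 hr at 37 °C. Cells: DT40 Tdp1-/- stably carrying human TDP1, 400 per well, compound exposure in the absence of CPT (DMSO vehicle).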
# An asterisk follows results filed as active; ? = inconclusive; . = not tested or not shown. The list is not random: actives were taken first. Their share in the collection is about 16%. Unless noted, calls follow the shape of the dose curve; as a rule, active = well fitted curve in the direction sought with a large enough effect; inconclusive = small, poorly fitted or top-dose-only effect, or another doubt; inactive = no such curve, though single readings can be large; an effect the other way counts as inactive or inconclusive.
# Field names: A = TDP1 inh; B = uPA surface inh; C = miR-21 reporter; D = DT40 TDP1 CPT; E = DT40 TDP1 no CPT
O=C(NCc1cccnc1)NC1(c2ccccc2)CC1
  A: 2%; B: 11%; C: 0%; D: -5%; E: -16%

O=C(C=Cc1ccccc1Cl)c1ccccc1
  A: .; B: -6%; C: .; D: ?; E: 16µM*

O=C(/C=C/c1ccccc1Cl)NC1CCS(=O)(=O)C1 (configuration not stated)
  A: 2%; B: 3%; C: -7%; D: 21µM*; E: 18µM*

O=C(/C=C/c1ccccc1Cl)NC1CCCCC1
  A: .; B: -10%; C: -45%; D: 1%; E: ?

O=C(/C=C/c1ccccc1[N+](=O)[O-])N1CCCCC1
  A: 0%; B: -5%; C: -31%; D: ?; E: 16%

Cc1[nH]c2ccccc2c1C(=O)/C=C/c1ccccc1Cl
  A: 1%; B: -1%; C: -38%; D: -28%; E: ?

Cc1[nH]c2ccccc2c1C(=O)/C=C\c1ccccc1Cl
  A: 5%; B: -7%; C: -57%; D: 21µM*; E: ?

O=C(/C=C/c1ccccc1Cl)N1CCCN(C(=O)/C=C/c2ccccc2Cl)CC1
  A: -10%; B: -4%; C: -8%; D: 18µM*; E: 21µM*

Cn1c(=O)c(-c2cccs2)nc2cncnc21
  A: .; B: .; C: .; D: 21%; E: -21%

Cc1ccc2c(=O)c(C(=O)c3ccc(Cl)cc3)cn(CC(=O)Nc3ccc4c(c3)OCCO4)c2n1
  A: 2%; B: .; C: -13%; D: ?; E: ?

CC(C)C[C@H]1CNC(=S)N1C[C@H]1CCCN1C[C@H](CC(C)C)N1C[C@H](Cc2ccccc2)N(CCc2ccccc2)C1=S
  A: .; B: .; C: .; D: ?; E: 21µM*

CC(C)C[C@H]1CNC(=S)N1C[C@H]1CCCN1C[C@H](CC(C)C)N1C[C@H](CC(C)C)N(CCc2ccccc2)C1=S
  A: .; B: .; C: .; D: ?; E: 26µM*

CC(C)C[C@@H](CN1CCC[C@H]1CN1C(=O)C(=O)NC[C@@H]1Cc1ccc(O)cc1)N1C[C@H](Cc2ccc(O)cc2)N(CCc2ccccc2)C(=O)C1=O
  A: .; B: .; C: .; D: -9%; E: -14%

CC(C)C[C@H]1CNC(=S)N1C[C@H]1CCCN1C[C@H](Cc1ccccc1)N1C[C@H](CC(C)C)N(CCc2ccccc2)C1=S
  A: .; B: .; C: .; D: 13µM*; E: 16µM*

CC(C)C[C@H]1CNC(=S)N1CC1CCCN1C[C@H](CC(C)C)N1C[C@H](CC(C)C)N(CCc2ccccc2)C1=S (some centres not stated)
  A: .; B: 14%; C: .; D: 8.2µM*; E: 5.8µM*

CCOc1ccc(OCc2ccc(C(=O)N/N=C(\C)c3ccccn3)cc2)cc1
  A: 9%; B: -13%; C: -9%; D: 0.92µM*; E: 0.65µM*

CCOc1ccc(C(=O)O/N=C(\N)c2ccccn2)cc1
  A: .; B: ?; C: ?; D: -9%; E: ?

C/C(=N\NC(=O)c1ccccc1OCc1ccc(F)cc1)c1ccccn1
  A: 2%; B: ?; C: .; D: 4.6µM*; E: 5.2µM*

COc1ccc(CNC(=O)Cn2cc(C)c(=O)[nH]c2=O)cc1
  A: .; B: 6%; C: .; D: 4%; E: -3%

Cc1oc2c(CN(C)C)c(O)ccc2c(=O)c1-c1cscn1
  A: 2%; B: 1%; C: -4%; D: -10%; E: -4%

CCc1cc2c(=O)c(-c3ccc4c(c3)OCO4)coc2c(CN(C)C)c1O
  A: .; B: 4%; C: -11%; D: 2.1µM*; E: 3.7µM*

CCc1cc2c(=O)c(-c3cscn3)coc2c(CN(C)C)c1O
  A: 3%; B: 0%; C: -7%; D: 1.5µM*; E: 2.3µM*

Cc1ccc(S(=O)(=O)/N=C(\c2ccc(F)cc2)n2c(C)nc3ccccc32)cc1
  A: 0%; B: 3%; C: -17%; D: -4%; E: -21%

CN1CCN(C(=O)C2=C[C@H](c3coc4ccccc4c3=O)C[C@H](OCc3ccc(CO)cc3)O2)CC1
  A: 6%; B: 9%; C: -5%; D: -12%; E: -15%

O=C(C1=C[C@@H](c2coc3ccccc3c2=O)C[C@@H](OCc2ccc(CO)cc2)O1)N1CCN(Cc2ccc3c(c2)OCO3)CC1
  A: 8%; B: 26%; C: 1%; D: 21µM*; E: 15µM*

O=C(C1=C[C@H](c2coc3ccccc3c2=O)C[C@H](OCc2ccc(CO)cc2)O1)N1CCN(Cc2ccc3c(c2)OCO3)CC1
  A: 4%; B: 10%; C: -8%; D: 7.3µM*; E: 7.3µM*

O=C(C1=C[C@@H](c2coc3ccccc3c2=O)C[C@@H](OCc2ccc(CO)cc2)O1)N1CCOCC1
  A: 5%; B: 15%; C: -5%; D: -20%; E: -8%

# Given bar-delimited: part of the list above
canonical_smiles | TDP1 inh | uPA surface inh | miR-21 reporter | DT40 TDP1 CPT | DT40 TDP1 no CPT
O=C(C1=C[C@H](c2coc3ccccc3c2=O)C[C@H](OCc2ccc(CO)cc2)O1)N1CCN(Cc2ccc3c(c2)OCO3)CC1 | 4% | 10% | -8% | 7.3µM* | 7.3µM*
CN1CCN(C(=O)C2=C[C@H](c3coc4ccccc4c3=O)C[C@H](OCc3ccc(CO)cc3)O2)CC1 | 6% | 9% | -5% | -12% | -15%
O=C(C1=C[C@@H](c2coc3ccccc3c2=O)C[C@@H](OCc2ccc(CO)cc2)O1)N1CCOCC1 | 5% | 15% | -5% | -20% | -8%
